Target: integrin αvβ6 protein (Homo sapiens, UniProt P06756+P18564)
Test: ELISA binding assay of αvβ6 ligand (competition with fibronectin)
Conditions: coated integrin αvβ6 protein, fibronectin as ligand, luminescence readout
Method: The integrin αvβ6 protein (source: Acro Biosystems) was diluted to 5 µg/mL with coating solution, and 25 µL of the protein was added to each well of a 384-well plate. The plate was centrifuged at 1,000 rpm for 1 minute and then left to stand overnight at 4°C. 100 µL of washing solution was added to each well and left to stand for 5 minutes. Then the plate was flicked dry and washed 3 times. 100 µL of blocking solution was added to each well. The plate was centrifuged at 1,000 rpm for 1 minute and then incubated at 25°C for 90 minutes. 100 µL of washing solution was added to each well and left to stand for 5 minutes. Then the plate was flicked dry and washed 3 times. 10 µL of the above compounds at different dilution concentrations was added to each well. The plate was centrifuged at 1,000 rpm for 1 minute and then incubated at 25°C for 10 minutes. 10 µL of fibronectin (source: R&D) was added to each well. The plate was centrifuged at 1,000 rpm for 1 minute and then incubated at 25°C for 60 minutes. 100 µL washing solution was added to each well and left to stand for 5 minutes. Then the plate was flicked dry and washed 3 times. 25 µL of biotinylated anti-fibronectin antibody (source: R&D) was added to each well. The plate was centrifuged at 1,000 rpm for 1 minute and then incubated at 25°C for 60 minutes. 100 µL washing solution was added to each well and left to stand for 5 minutes. Then the plate was flicked dry and washed 3 times. 25 µL of horseradish peroxidase-labeled streptavidin was added to each well. The plate was centrifuged at 1,000 rpm for 1 minute and then incubated at 25°C for 30 minutes. 100 µL of washing solution was added to each well and left to stand for 5 minutes. Then the plate was flicked dry and washed 4 times. 25 µL of ultrasensitive luminescent substrate solution was added to each well. The plate was centrifuged at 1000 rpm for 1 minute and then incubated at 25°C for 5 minutes. The luminescence values were read on a microplate reader. [Table 2]: Binding Activity of Integrin αvβ6 Ligands

Protein sequences, listed by entry. Tags and fused reporters are not part of them. Residues count along the entry.
UniProt P06756, 31-992 limits assumed: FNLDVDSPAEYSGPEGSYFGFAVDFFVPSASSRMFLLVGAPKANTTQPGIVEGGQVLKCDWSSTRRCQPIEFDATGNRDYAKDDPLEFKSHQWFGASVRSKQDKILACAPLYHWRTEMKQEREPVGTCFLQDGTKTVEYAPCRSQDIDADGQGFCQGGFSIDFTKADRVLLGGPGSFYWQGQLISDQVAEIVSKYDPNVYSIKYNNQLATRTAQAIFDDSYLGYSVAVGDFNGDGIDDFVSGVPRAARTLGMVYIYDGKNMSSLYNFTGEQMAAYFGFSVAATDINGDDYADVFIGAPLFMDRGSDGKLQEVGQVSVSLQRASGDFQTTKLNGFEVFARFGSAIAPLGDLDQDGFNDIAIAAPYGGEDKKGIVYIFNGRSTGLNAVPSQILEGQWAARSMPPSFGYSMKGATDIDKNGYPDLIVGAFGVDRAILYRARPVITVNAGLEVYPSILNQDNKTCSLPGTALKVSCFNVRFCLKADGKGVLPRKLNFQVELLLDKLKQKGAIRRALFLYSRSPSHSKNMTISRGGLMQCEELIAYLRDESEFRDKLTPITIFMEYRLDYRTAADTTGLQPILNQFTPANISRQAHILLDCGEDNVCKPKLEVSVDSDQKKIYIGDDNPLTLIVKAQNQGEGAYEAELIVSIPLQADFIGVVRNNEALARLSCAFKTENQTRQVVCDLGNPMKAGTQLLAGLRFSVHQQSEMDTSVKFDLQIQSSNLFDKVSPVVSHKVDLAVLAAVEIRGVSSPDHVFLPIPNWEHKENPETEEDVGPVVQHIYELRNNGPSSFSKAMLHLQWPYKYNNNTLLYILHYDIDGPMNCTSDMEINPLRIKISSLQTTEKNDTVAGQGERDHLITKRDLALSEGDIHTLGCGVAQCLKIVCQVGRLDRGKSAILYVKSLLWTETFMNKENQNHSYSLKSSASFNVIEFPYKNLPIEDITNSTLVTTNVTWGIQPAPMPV
UniProt P18564, 22-707 limits assumed: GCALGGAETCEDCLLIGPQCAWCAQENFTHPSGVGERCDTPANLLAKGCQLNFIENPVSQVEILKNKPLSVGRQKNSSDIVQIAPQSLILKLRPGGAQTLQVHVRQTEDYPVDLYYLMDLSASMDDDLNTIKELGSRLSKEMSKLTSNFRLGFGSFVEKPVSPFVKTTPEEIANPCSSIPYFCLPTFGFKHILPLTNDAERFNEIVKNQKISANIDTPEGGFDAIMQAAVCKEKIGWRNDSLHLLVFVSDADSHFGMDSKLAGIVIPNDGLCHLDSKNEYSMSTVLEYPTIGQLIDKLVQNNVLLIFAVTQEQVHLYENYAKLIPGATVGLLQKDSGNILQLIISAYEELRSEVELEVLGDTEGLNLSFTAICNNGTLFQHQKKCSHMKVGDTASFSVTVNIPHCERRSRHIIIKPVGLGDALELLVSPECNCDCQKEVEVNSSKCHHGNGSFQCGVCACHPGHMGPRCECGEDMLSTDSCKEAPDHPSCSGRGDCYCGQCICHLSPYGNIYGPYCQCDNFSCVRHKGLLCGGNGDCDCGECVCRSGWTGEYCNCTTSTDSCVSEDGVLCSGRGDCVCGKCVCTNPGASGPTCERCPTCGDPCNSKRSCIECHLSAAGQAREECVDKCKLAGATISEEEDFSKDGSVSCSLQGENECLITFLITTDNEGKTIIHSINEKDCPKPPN

| IC50 | SMILES |
| --- | --- |
| 2.11 nM | Cn1nccc1-c1cccc([C@H](CC(=O)O)NC(=O)CNC(=O)CCCNc2ncc[nH]2)c1 |
| 4.53 nM | Cn1nccc1-c1cc([C@H](CC(=O)O)NC(=O)CNC(=O)CCCNc2nc(C#N)c[nH]2)ccc1OCCOCCOCCOCCOCCN=[N+]=[N-] |
| 4.42 nM | Cn1nccc1-c1cccc([C@H](CC(=O)O)NC(=O)CNC(=O)CCCNc2nc(C#N)c[nH]2)c1 |
